In paper PMC6010333 (Science Advances, 2018):

Assays:
Rat brain Kp,uu = format: in vivo; conditions: male, Han Wistar, not told, oral, 10 mg/kg
Solubility = format: physicochemical
Mouse brain Kp,uu = format: in vivo; conditions: female, nu/nu, not told, oral, 10 mg/kg
mTOR = mTOR (Homo sapiens, UniProt P42345); assay: mTOR cell assay; format: cell-based
[1] = Cynomolgus macaque brain PET; format: in vivo; conditions: 11C-labeled intravenous microdose

## CN(C)CCCOc1ccc(-c2ccc3ncc4c(c3c2)n(C2CCOCC2)c(=O)n4C)cn1 [AZD0156, 8-{6-[3-(dimethylamino)propoxy]pyridin-3-yl}-3-methyl-1-(tetrahydro-2H-pyran-4-yl)-1,3-dihydro-2H-imidazo[4,5-c]quinolin-2-one, reference compound]
Rat brain Kp,uu
  Kp: 0.027
Solubility
  solid-state assessment: crystalline
Mouse brain Kp,uu
  Kp: 0.006
mTOR
  IC50: 1400 nM
[1]
  brain Cmax (%ID): 0.15 ± 0.036 %ID
